Literature values in patent publication US12605432B2, “Combinations for antigen based therapy” (Diamyd Medical AB, priority 2014, dated 2026).

Test system: patients with recent-onset type 1 diabetes

abatacept: Fc modified CTLA4 immunoglobulin; fusion protein of extracellular portion of human CTLA4 and heavy chain of human IgG1
patients with peak stimulated C peptide >0.2 nmol/l (active arm, 36 months after commencement of treatment, placebo 30%): 35% | effect in DR3-negative patients (in vivo): lack of effect | endogenous insulin secretion as measured by stimulated C peptide (over the initial 6 months as compared with placebo): significantly preserves endogenous insulin secretion
